# Experimental data as given in ChEMBL document CHEMBL2218924, “A broad activity screen in support of a chemogenomic map for kinase signalling research and drug discovery” (Biochem J, 2013).
# Chains of the proteins cited; added tags and fusions are not shown. Lines headed by an entry give the natural chain unless they say otherwise; changes in a name come on top.
# UniProt P49840: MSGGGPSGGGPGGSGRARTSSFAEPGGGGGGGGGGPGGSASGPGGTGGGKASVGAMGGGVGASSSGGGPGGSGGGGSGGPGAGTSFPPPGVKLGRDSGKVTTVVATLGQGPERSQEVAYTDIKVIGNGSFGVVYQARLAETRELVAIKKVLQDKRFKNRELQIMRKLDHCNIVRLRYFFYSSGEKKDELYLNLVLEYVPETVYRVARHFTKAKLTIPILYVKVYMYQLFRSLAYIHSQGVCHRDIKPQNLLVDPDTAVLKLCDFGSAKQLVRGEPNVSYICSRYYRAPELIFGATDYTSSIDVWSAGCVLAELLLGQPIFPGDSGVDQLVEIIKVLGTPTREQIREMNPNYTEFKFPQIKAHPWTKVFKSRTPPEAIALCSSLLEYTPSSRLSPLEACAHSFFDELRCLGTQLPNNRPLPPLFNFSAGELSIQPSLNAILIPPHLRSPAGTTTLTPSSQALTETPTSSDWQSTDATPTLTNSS
# UniProt Q9H4B4: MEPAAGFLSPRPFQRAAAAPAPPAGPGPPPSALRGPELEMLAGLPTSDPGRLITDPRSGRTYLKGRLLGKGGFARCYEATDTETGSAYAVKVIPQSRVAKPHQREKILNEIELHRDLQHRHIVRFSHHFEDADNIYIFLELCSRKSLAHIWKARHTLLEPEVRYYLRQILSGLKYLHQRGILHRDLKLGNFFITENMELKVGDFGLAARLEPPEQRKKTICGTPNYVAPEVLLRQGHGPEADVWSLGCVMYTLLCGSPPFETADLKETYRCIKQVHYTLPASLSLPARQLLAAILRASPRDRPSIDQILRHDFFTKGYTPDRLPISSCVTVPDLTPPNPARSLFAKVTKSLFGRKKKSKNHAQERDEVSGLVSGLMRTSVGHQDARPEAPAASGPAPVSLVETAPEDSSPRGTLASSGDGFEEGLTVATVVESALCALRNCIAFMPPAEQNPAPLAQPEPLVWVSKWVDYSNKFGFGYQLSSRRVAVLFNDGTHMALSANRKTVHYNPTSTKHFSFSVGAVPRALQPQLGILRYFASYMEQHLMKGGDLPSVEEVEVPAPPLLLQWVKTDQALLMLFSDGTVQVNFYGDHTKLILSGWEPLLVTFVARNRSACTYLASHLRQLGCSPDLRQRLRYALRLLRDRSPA
# UniProt Q96RG2: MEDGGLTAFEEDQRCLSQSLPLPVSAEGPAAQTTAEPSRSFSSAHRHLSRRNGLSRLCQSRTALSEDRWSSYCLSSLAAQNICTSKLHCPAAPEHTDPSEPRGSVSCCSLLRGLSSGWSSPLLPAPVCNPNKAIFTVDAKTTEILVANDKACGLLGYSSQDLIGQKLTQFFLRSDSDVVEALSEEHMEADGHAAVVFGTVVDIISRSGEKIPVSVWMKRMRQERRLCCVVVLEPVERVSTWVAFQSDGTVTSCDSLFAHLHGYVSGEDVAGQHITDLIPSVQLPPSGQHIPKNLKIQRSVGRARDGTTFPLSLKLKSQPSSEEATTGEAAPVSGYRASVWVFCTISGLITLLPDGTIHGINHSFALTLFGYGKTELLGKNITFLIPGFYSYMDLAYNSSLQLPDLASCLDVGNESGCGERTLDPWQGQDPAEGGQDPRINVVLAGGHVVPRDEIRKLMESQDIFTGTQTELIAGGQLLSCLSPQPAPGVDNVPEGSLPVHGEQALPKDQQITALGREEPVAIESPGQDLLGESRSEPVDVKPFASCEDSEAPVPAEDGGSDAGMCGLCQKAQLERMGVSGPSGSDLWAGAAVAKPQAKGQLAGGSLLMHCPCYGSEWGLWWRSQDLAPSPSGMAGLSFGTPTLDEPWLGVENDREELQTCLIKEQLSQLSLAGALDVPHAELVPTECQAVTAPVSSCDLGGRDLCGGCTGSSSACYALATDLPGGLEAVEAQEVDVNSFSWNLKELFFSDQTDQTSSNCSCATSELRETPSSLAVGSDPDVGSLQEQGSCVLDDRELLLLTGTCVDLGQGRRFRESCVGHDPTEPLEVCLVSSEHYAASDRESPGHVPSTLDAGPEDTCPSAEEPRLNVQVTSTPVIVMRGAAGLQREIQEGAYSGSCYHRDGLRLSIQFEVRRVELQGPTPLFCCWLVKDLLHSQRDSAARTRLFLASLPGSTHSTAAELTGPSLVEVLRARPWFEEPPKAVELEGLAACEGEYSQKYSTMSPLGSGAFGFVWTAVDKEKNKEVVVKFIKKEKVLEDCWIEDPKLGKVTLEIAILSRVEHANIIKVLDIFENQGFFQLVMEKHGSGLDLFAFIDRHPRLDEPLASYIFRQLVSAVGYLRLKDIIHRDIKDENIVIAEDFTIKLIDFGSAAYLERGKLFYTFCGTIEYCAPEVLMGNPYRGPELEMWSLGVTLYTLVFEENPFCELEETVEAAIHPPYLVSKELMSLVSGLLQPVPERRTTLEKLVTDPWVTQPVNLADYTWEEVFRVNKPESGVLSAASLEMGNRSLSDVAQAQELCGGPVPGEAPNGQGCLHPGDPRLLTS
# UniProt Q9UEE5: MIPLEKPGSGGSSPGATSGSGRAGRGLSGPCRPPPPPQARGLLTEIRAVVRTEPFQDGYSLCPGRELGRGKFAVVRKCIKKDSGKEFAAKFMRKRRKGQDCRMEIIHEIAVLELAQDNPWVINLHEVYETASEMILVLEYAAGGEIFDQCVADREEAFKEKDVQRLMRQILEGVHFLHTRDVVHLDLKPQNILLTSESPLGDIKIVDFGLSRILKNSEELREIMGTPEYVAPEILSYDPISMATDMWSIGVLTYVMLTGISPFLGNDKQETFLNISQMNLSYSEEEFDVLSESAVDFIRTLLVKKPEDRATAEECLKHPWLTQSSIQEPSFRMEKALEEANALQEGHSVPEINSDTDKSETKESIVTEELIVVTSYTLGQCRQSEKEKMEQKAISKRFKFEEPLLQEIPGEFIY
# UniProt P54753: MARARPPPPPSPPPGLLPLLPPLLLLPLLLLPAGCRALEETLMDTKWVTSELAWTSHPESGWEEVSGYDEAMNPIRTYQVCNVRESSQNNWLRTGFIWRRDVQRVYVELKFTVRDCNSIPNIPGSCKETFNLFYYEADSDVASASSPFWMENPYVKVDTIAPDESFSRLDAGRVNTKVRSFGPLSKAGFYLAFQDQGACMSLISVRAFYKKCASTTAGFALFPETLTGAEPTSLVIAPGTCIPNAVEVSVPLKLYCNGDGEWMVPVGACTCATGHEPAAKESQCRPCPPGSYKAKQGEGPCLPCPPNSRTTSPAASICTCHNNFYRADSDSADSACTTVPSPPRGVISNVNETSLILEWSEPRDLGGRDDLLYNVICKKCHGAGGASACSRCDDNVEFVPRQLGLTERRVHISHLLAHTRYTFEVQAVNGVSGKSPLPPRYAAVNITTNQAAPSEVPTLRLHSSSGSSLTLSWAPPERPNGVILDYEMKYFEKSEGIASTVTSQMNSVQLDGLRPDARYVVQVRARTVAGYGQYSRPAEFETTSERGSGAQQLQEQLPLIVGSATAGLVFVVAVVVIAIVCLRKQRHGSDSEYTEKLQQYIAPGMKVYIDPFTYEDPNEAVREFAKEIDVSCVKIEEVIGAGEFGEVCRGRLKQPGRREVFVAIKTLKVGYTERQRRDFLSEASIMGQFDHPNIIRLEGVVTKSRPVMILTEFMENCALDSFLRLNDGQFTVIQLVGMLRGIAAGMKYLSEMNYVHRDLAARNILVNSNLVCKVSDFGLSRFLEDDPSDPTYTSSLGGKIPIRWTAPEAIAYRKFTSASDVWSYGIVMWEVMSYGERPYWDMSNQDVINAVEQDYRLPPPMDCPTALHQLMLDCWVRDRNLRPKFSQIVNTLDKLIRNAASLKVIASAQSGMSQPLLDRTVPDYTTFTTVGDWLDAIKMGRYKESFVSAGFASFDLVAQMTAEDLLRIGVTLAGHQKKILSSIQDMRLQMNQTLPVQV
# UniProt P16591: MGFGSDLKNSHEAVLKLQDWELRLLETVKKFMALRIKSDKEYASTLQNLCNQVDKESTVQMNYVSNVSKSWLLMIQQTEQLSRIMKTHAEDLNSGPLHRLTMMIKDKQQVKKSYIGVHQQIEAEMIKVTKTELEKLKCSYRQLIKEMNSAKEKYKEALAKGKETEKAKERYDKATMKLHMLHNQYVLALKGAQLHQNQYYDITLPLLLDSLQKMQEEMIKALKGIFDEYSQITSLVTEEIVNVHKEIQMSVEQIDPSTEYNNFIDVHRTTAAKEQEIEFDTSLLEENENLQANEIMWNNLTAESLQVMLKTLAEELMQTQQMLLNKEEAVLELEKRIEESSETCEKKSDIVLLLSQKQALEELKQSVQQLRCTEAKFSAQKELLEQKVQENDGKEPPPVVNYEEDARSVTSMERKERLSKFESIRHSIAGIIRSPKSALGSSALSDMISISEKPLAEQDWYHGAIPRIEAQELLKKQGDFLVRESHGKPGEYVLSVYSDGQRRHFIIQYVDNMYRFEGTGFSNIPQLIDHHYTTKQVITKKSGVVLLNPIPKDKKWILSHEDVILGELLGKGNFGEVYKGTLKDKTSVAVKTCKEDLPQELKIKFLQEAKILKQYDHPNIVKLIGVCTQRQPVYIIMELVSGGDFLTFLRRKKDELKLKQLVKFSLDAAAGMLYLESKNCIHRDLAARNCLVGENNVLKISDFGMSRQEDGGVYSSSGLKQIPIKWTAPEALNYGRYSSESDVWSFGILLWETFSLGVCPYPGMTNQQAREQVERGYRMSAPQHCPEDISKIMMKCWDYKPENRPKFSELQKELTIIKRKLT
# UniProt Q9UIK4: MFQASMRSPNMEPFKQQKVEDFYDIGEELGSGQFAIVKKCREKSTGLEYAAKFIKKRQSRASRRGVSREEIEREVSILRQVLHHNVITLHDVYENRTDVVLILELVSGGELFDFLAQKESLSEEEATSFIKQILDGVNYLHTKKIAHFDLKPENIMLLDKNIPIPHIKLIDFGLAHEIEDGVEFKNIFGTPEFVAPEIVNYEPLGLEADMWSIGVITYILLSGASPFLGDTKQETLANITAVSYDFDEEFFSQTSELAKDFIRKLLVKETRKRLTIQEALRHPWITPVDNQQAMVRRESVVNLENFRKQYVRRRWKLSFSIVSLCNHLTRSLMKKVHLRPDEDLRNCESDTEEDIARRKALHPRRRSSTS
# UniProt Q13043: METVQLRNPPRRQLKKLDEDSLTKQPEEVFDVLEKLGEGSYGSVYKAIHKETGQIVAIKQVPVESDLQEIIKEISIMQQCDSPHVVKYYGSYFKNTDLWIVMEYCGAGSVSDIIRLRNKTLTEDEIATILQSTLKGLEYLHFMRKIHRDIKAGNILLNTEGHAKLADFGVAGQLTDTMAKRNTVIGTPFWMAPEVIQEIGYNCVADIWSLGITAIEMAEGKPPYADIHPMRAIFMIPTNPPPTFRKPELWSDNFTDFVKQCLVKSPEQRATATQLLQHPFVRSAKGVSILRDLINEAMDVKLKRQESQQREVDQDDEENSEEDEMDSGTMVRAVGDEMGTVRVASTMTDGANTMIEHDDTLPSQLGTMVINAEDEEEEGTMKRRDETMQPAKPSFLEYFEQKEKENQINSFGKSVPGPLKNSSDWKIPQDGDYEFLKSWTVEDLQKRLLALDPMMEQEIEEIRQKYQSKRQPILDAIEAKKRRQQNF
# For part of these data: Most of the strong results are listed elsewhere, so they are rarer here than in the full data. The entries are a selection whose mix differs from that of the whole data set.
# Key:
# [1] = target: T1, Discoidin domain-containing receptor 2 (Homo sapiens) (UniProt Q16832); settings: at 10 µM
# T1 sequence (whole entry): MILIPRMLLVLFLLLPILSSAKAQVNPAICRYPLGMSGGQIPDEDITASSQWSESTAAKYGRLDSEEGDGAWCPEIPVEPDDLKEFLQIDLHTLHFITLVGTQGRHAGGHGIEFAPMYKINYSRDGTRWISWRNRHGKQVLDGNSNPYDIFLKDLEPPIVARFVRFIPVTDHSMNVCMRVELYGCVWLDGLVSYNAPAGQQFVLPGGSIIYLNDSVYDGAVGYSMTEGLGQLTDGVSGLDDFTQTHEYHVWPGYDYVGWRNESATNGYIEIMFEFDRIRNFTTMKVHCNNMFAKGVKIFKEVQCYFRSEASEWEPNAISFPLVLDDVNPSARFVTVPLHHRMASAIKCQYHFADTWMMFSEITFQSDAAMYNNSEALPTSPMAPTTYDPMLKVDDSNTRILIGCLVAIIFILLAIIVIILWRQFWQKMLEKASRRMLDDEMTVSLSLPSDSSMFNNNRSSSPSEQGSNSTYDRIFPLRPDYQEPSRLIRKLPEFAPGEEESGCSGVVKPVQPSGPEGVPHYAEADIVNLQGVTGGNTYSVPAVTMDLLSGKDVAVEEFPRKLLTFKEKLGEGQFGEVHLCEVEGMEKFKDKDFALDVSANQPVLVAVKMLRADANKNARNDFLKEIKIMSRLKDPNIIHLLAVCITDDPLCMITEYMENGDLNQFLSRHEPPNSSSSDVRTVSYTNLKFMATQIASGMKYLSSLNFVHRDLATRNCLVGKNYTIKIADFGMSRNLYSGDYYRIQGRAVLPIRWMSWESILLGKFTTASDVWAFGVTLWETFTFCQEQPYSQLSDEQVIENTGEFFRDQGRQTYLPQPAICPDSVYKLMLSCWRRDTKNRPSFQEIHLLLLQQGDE
# [2] = target: Glycogen synthase kinase-3 alpha (Homo sapiens) (UniProt P49840); settings: at 1 µM
# [3] = target: Serine/threonine-protein kinase PLK3 (Homo sapiens) (UniProt Q9H4B4); settings: at 10 µM
# [4] = target: PAS domain-containing serine/threonine-protein kinase (Homo sapiens) (UniProt Q96RG2); settings: at 1 µM
# [5] = target: T2, Ephrin type-A receptor 8 (Homo sapiens) (UniProt P29322); settings: at 10 µM
# T2 sequence (whole entry): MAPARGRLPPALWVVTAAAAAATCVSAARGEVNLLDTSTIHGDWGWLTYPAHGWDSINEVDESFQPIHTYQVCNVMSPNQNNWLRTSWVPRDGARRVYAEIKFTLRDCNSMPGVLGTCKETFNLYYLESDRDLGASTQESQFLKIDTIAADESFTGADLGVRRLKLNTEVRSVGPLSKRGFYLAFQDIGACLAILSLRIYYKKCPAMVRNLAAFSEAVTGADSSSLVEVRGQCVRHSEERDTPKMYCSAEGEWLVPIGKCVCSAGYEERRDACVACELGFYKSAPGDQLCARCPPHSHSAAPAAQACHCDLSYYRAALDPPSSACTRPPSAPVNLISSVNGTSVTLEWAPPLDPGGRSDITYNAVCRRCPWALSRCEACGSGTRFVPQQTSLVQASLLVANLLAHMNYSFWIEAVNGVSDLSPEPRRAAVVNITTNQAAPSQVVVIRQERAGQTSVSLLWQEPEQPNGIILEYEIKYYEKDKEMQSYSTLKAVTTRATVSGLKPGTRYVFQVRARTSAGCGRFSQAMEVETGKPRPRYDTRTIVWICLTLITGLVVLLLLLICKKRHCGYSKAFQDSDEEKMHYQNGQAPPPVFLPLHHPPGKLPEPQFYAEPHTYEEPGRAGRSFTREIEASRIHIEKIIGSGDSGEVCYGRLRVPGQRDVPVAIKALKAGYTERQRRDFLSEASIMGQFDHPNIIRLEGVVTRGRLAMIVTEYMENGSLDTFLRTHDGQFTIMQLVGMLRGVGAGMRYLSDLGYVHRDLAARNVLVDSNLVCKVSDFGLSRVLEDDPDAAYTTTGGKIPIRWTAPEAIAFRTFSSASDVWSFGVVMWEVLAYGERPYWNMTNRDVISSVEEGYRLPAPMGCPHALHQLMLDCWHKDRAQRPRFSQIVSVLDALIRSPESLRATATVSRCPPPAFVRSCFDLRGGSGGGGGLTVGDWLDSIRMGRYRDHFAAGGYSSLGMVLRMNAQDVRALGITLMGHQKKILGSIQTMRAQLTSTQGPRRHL
# [6] = target: T3, Serine/threonine-protein kinase NLK (Homo sapiens) (UniProt Q9UBE8); settings: at 1 µM
# T3 sequence (whole entry): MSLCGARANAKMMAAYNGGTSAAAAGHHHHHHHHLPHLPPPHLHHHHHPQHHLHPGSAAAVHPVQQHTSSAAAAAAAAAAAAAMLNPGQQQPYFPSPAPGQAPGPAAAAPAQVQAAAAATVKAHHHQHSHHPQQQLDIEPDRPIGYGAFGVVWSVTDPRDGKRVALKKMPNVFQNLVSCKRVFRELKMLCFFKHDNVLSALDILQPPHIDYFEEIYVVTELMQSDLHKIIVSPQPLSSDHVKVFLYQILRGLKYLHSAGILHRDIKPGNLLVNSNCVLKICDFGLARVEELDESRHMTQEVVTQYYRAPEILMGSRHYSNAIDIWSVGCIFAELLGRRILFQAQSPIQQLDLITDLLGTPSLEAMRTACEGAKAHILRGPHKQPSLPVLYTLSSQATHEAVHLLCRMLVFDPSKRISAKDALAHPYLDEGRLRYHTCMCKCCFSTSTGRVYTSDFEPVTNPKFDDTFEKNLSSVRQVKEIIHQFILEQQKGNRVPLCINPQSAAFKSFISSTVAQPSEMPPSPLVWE
# [7] = target: Serine/threonine-protein kinase 17A (Homo sapiens) (UniProt Q9UEE5); settings: at 1 µM
# [8] = target: Ephrin type-B receptor 3 (Homo sapiens) (UniProt P54753); settings: at 10 µM
# [9] = target: Tyrosine-protein kinase Fer (Homo sapiens) (UniProt P16591); settings: at 1 µM
# [10] = target: Homeodomain-interacting protein kinase 3 (Homo sapiens) (UniProt Q9H422); settings: at 1 µM
# [11] = target: Death-associated protein kinase 2 (Homo sapiens) (UniProt Q9UIK4); settings: at 10 µM
# [12] = target: Serine/threonine-protein kinase 4 (Homo sapiens) (UniProt Q13043); settings: at 1 µM
# [13] = target: T4, Serine/threonine-protein kinase Nek6 (Homo sapiens) (UniProt Q9HC98); settings: at 10 µM
# T4 sequence (whole entry): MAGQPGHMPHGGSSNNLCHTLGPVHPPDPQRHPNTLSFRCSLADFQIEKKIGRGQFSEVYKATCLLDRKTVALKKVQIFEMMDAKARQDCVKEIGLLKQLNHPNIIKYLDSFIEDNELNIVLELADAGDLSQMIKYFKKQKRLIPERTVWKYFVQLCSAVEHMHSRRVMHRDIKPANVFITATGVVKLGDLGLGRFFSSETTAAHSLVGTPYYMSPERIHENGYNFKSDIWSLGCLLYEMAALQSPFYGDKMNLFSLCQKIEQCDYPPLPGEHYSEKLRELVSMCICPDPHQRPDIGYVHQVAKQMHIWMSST
# [14] = target: Protein kinase C gamma type (Homo sapiens) (UniProt P05129); settings: at 10 µM
# [15] = target: T5, Serine/threonine-protein kinase BRSK2 (Homo sapiens) (UniProt Q8IWQ3); settings: at 1 µM
# T5 sequence (whole entry): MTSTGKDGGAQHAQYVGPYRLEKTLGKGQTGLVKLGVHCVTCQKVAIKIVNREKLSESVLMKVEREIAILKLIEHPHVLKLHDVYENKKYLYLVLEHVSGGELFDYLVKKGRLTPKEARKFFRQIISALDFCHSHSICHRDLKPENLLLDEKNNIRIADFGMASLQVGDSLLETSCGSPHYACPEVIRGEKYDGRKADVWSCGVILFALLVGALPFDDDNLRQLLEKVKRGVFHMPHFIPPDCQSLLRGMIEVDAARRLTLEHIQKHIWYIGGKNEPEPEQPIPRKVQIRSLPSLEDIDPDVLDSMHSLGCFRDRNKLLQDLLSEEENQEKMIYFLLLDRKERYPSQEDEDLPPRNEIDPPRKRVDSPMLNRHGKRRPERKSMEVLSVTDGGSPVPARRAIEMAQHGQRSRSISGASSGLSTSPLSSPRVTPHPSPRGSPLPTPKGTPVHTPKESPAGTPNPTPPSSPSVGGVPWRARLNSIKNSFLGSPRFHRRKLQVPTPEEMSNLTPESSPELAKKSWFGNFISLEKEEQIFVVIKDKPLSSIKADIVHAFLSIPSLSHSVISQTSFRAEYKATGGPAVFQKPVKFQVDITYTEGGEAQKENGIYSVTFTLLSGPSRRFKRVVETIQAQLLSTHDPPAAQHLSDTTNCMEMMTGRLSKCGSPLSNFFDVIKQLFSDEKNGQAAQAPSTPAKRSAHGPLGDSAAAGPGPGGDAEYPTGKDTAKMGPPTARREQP
compound,measurement,setting,value
COc1cccc(-c2cc(=O)c3ccccc3o2)c1N,residual activity,[1],99%
same,residual activity,[2],114%
same,residual activity,[3],102%
same,residual activity,[4],107%
CC[n+]1c(/C=C/N(C)c2ccccc2)n(-c2ccccc2)c2ccc(-c3nc4ccccc4s3)cc21,residual activity,[5],108%
same,residual activity,[6],115%
CC(C)n1cnc2/c(=N/c3cccc(Cl)c3)nc(NCCO)[nH]c21,residual activity,[7],106%
same,residual activity,[8],101%
same,residual activity,[9],94%
same,residual activity,[10],97%
Cc1nc(-c2ccccc2)c(-c2ccncc2)o1,residual activity,[11],96%
same,residual activity,[12],85%
same,residual activity,[13],116%
same,residual activity,[14],107%
CNc1cc2c(Nc3cccc(Br)c3)ncnc2cn1,residual activity,[15],84%
